{"sequences": {"note": "Protein sequences, listed by entry. Tags and fused reporters are not part of them.", "UniProt P19327, whole entry": "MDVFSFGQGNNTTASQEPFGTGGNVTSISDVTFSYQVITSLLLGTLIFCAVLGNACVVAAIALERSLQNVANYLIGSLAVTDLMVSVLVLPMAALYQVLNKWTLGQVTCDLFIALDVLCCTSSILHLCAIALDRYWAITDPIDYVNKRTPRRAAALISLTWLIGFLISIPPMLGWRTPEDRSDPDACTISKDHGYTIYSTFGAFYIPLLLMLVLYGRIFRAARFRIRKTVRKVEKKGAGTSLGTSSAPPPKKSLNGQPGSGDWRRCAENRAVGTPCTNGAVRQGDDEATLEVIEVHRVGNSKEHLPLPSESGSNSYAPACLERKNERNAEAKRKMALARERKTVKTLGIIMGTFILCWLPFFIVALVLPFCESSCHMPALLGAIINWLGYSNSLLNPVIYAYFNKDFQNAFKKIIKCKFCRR"}, "source": "ChEMBL document CHEMBL1127604", "about": "(J Med Chem, 1994)", "molecular_target": "5-hydroxytryptamine receptor 1A (Rattus norvegicus, UniProt P19327)", "test": "Inhibition of forskolin stimulated adenylate cyclase at 5-hydroxytryptamine 1A receptor", "assay_type": "functional"}
{"smiles": "NCCc1c[nH]c2ccc(O)cc12", "note": "[SEROTONIN]", "values": [{"measurement": "EC50", "value": 10, "unit": "nM"}]}
